According to patent publication EP4682143A1, “PHARMACEUTICAL COMPOSITION CONTAINING EGFR INHIBITOR, AND PREPARATION METHOD THEREFOR AND USE THEREOF” (Convalife Pharmaceuticals Co., Ltd., priority 2023, dated 2024):

System: Ba/F3 engineered cell EGFR-G719S xenograft model
Details: equivalent doses, body weight
Procedure: Statistical analyses were performed using GraphPad Prism 6. […] A value of P < 0.05 was considered statistically significant.

Which “Tolerability compared with afatinib” value does the source give for `CCOc1cc2ncc(C#N)c(Nc3ccc(OCc4ccccn4)c(Cl)c3)c2cc1NC(=O)/C=C/CN(C)C.O=C(O)/C=C\C(=O)O` [Compound A009, (E)-N-(4-(3-chloro-4-(pyridin-2-ylmethoxy)anilino)-3-cyano-7-ethoxyquinolin-6-yl)-4-(dimethylamino)but-2-enamide maleate, reference compound] here?
Its value is “overall better tolerability”.
